According to patent publication US8962257B2, “Methods for diagnosing heart failure and other cardiac diseases” (The Trustees of the University of Pennsylvania, priority 2010, dated 2015):

Key:
[1] = system: NRG-1β; experiment: Serial plasma NRG-1β by indirect sandwich ELISA in Her-2+ breast cancer patients receiving doxorubicin and trastuzumab; type: in vivo, human; conditions: three months of Herceptin exposure
Method: NRG-1β is measured from frozen, previously unthawed serum or plasma samples that had been stored at −80° C. until time of assay. An indirect sandwich enzyme-linked immunosorbent assay (ELISA) was used (NRG1-β1 Duoset ELISA development system from R&D Systems, Minneapolis, Minn.). Assay technology was adapted for human samples, and all measurements were performed at Vanderbilt University. Serum or plasma was applied to plates that had been coated with mouse anti-human NRG1-β1 capture antibody. Following incubation, a biotinylated goat anti-human NRG1-β1 detection antibody was added to each well, and a streptavidin-HRP system was used for detection. The monoclonal antibody used in this assay detects a biologically active NRG-1β peptide fragment that is highly expressed in the cardiovascular system, and that activates the ErbB receptor and downstream signaling pathways in ventricular myocytes in vitro. Extensive validation was performed and there was no cross-reactivity with NRG-1α isoform or epidermal growth factor.
Breast cancer patients receiving doxorubicin followed by trastuzumab were prospectively recruited. […]
NRG-1β plasma level was measured serially every 3 months during chemotherapy treatment. NRG-1β was measured via indirect sandwich ELISA that detects a biologically active peptide sequence highly expressed in cardiac system (CV 5.6-13%).

[2] = ErbB2 (Her-2) positive breast cancers; worsened by anthracyclines; cited from earlier work

In the case of trastuzumab [Herceptin], the “change in NRG-1β” value [1] is given as “not associated with a statistically significant change” and the “rate of heart failure and cardiac dysfunction” value [2] is given as 4-27%.
